Here are results for one compound from patent USRE38460E1 (priority 1994, dated 2004).

Protein sequences, listed by entry. Tags and fused reporters are not part of them. Residues count along the entry.
UniProt P37136, 32-616 isoform 2 limits assumed: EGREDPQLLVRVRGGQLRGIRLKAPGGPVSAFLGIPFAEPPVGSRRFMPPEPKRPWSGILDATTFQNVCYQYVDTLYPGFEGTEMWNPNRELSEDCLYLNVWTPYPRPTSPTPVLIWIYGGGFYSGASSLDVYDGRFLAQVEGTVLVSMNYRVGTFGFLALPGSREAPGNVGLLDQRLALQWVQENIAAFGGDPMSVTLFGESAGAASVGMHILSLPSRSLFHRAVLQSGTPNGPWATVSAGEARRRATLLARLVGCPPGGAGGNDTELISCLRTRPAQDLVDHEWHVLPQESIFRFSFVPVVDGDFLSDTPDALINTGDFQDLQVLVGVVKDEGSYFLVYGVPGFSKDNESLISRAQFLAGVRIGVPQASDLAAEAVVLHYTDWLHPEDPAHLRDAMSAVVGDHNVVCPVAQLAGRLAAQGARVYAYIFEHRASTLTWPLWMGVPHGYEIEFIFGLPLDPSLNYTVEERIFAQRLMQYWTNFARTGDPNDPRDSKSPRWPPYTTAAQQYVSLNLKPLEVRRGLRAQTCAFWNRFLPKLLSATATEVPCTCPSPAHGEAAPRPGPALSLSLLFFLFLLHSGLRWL
UniProt Q9JKC1, 24-597 limits assumed: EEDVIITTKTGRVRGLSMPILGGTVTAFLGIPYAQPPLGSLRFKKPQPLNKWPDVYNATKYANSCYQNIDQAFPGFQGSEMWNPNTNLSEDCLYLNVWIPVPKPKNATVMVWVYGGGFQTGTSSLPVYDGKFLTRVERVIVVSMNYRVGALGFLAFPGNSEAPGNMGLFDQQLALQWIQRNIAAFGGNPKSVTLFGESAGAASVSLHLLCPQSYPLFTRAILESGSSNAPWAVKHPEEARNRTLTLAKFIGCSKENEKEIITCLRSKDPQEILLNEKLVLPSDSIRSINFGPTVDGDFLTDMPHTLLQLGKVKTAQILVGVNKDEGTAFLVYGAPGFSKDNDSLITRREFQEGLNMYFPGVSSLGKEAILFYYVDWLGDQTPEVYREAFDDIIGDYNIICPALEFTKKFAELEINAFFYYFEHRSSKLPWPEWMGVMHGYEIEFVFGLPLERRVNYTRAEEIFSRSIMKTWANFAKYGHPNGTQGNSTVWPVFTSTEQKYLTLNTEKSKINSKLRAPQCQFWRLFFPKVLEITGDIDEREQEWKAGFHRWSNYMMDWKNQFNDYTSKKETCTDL

pIC50: −log10 of the molar value. Bounds are passed on as bounds.

Test [1] concerns the target acetylcholinesterase (AChE) (Rattus norvegicus, UniProt P37136). The following applies: read-out: concentration for inhibition of 50% of enzyme activity (IC50) acetylcholinesterase (AChE); Table 1; AChE taken from rat's red cell membrane.
The target in test [2] is butyrylcholinesterase (BuChE) (Rattus norvegicus, UniProt Q9JKC1). The experiment in a line: In-vitro anticholinesterase effect, colorimetric method (Ellman), BuChE from rat's serum. The class given is biochemical. The following applies: read-out: concentration for inhibition of 50% of enzyme activity (IC50) butyrylcholinesterase (BuChE); Table 1; BuChE taken from rat's serum.

As for `CC=C1C2C=C(C)CC1(N(C)C(=O)C1=CN(C)CCC1)c1ccc(=O)n(C)c1C2` (centres unmarked), the pIC50 in test [1] is 5.44; in test [2], below 3.48.
